According to PubChem BioAssay AID425 (Sanford-Burnham Center for Chemical Genomics, 2006):
This is a selection; strong and weak results do not stand in their true shares. Entries with a potency or affinity are not part of this list. Some tests of the compounds listed are not included; inactive here does not mean inactive elsewhere. The source made the active and inactive calls. Rule as the data show it: active = inhibition above about 50%; inactive = the rest.

By UniProt entry, the sequences of proteins in these tests, tags left out.
UniProt Q64346, whole entry: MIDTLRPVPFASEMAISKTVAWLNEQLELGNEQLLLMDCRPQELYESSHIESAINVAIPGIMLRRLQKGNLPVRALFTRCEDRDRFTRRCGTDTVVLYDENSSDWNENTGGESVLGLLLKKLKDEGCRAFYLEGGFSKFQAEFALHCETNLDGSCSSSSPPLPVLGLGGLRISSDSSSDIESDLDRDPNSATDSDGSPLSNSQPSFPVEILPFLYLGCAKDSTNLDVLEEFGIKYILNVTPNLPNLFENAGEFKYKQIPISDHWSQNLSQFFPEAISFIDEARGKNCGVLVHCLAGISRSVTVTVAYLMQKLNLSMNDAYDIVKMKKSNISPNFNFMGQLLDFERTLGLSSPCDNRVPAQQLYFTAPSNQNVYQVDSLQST

What follows are compounds tested against Dual specificity protein phosphatase 6 (Rattus norvegicus) (UniProt Q64346) (assay: inhibition of rat DUSP6 enzyme activity – biochemical, in vitro, primary screen (AID 425;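 also: plate controls were vehicle for no effect and reference inhibitor for full effect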)). Conditions: recombinant MKP-3 phosphatase activity, fluorescence; at 20 µM; stronger effect = higher value.

| Structure (SMILES) | inhibition |
| --- | --- |
| COc1ccc(OC)c(C=C(C#N)C#N)c1 | inactive: -0.7% |
| O=C(OC1CN2CCC1CC2)C(CO)(c1ccccc1)c1ccccc1 (stereo not drawn) | inactive: -3% |
| CN(C)c1cccc(C(=O)NCC2(N(C)C)CCCCC2)c1 | inactive: -10.2% |
